Chains of the proteins cited; added tags and fusions are not shown. Residues count along the entry.
UniProt P14780, 94-707: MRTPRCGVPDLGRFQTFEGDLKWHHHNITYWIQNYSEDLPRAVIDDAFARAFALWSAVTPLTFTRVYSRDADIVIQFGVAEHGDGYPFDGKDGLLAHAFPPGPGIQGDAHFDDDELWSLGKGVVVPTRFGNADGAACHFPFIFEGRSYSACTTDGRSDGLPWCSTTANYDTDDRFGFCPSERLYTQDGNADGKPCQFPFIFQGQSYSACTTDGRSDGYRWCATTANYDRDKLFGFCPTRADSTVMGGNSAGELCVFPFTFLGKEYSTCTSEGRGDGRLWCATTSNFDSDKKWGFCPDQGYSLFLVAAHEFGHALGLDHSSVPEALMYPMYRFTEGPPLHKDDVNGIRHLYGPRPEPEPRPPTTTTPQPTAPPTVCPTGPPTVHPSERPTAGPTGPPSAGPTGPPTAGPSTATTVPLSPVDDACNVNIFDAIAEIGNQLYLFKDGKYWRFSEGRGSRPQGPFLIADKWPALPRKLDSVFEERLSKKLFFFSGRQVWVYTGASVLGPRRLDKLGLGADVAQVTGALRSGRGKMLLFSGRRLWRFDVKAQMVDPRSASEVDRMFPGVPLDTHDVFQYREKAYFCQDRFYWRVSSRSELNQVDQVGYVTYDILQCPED

According to patent US6767890B1, “Peptides having anti-cancer and anti-inflammatory activity” (priority 1998, dated 2004):

What was measured:
[1] = biological target: T1, Protease - Elastase (Homo sapiens, UniProt P08246); assay: Protease - Elastase enzyme assay; assay type: biochemical; details: historical value; read-out: ^1IC, (IC50 of reference compound)
T1 construct: neutrophils; endogenous in cells; host or cells: human neutrophils
T1 sequence (P08246 30-267): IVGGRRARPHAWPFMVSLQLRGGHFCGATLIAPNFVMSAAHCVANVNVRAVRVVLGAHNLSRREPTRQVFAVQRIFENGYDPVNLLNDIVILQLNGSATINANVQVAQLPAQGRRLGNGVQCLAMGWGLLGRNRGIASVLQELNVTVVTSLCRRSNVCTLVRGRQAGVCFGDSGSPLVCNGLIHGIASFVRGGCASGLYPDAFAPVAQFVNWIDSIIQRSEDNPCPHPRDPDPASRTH
Description: (§1) The peptide was further screened in vitro in a variety of enzyme and biochemical assays. Methods employed were adapted from the scientific literature to maximize reliability and reproducibility. The primary literature reference for each assay is listed in Table 11 opposite the results for each assay.
(§2) Unless otherwise indicated, the peptide was tested in duplicate at the concentrations indicated for each assay. Results presented in Table 10, “Results,” are the average of duplicate determinations, unless otherwise noted.
(§3) Reference compounds were tested concurrently at 5 concentrations as an integral part of each assay to ensure the validity of the results obtained.
(§4) Enzyme assays were performed under conditions described in Table 8, “Experimental Conditions.”. The commercial suppliers and catalog numbers of substrates employed in this study are given in Table 7, “Material Sources.” The name, commercial source, and catalog numbers of concurrent reference compounds (controls) employed in this study are given in Table 9, “Reference Compound Data.” The reaction catalyzed by each enzyme is listed in Table 8, “Experimental Conditions.”
(§5) Biochemical assay results are presented in Table 10, as the percent inhibition of specific binding or activity, and unless noted are the average of duplicate tubes tested at each concentration.

[2] = biological target: T2, Collagenase IV (Homo sapiens, UniProt P14780); assay: Collagenase IV enzyme assay; assay type: biochemical; details: historical value; read-out: ^1IC, (IC50 of reference compound)
T2 construct: human U937; endogenous in cells; host or cells: U937 cells
Description: as §1, §2, §3, §4, §5

[3] = biological target: T3, PLA2, Pancreatic (Sus scrofa, UniProt P00592); assay: PLA2, Pancreatic enzyme assay; assay type: biochemical, porcine; details: historical value; read-out: ^1IC, (IC50 of reference compound)
T3 construct: porcine; from tissue; host or cells: porcine pancreas
T3 sequence (P00592 23-146): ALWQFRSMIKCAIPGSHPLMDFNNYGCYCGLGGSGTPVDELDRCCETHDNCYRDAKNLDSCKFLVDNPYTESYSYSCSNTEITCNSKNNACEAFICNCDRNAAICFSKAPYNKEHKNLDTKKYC
Description: as §1, §2, §3, §4, §5

[4] = tested on: oxazolone-induced ear swelling; assay: Immune Suppression, Cellular (oxazolone ear thickness); assay type: in vivo; details: mouse, 100 mg/kg × 5 IP; one animal out of 5 died on day 8 before oxazolone application
Description: (§6) Peptide was prepared according to the methods set out in Example 1. The vehicle of distilled water was used for in vitro assays, working solution of peptide was added to the 10 ml tissue bath. For in vivo assay, distilled water and saline was used as vehicle in oral and intraperitoneal administration, respectively. Dosing volume was 20 ml/kg for mice or 10 ml/kg for rats. For topical route, peptide was dissolved in a vehicle of Acetone/Ethanol (1:1) and applied in a dosing volume 20 μl/ear.
Groups of 5 ICR derived male mice weighing 22±1 gms were used. The preshaved abdominal surface was sensitized by application of oxazolone 0.1 ml of 5% solution. Test substance of peptide at dose of 100 mg/kg and vehicle (saline) were administered into the mice intra peritoneally after one hour and daily for five consecutive doses. After additional four days, the animals were challenged by secondary application of oxazolone (0.025 ml of 5% solution) to the right ear. After a further 24 hours, each mouse was sacrificed and ear thickness measured with a Dyer Model micrometer gauge. A 30 percent or more (≧30%) decrease relative to the vehicle control group was considered significant and indicated possible immunosuppressant activity.

[5] = tested on: DNBS-induced distal colitis; assay: Inflammation, Inflammatory Bowel Disease (DNBS distal colitis); assay type: in vivo; details: rat, 30 mg/kg × 6 PO, died on day 7
Description: as §6
Groups of 3 Sprague-Dawley derived male rats weighing 150±20 gms and fasted for 24 hours were used. Distal colitis was induced by intra-colonic instillation of DNBS (2,4-dinitrobenzene sulfonic acid, 30 mg in 0.5 ml ethanol 30%) after which air (2 ml) was gently injected through the cannula to ensure that the solution remains in the colon. Test substance was administered PO (30 mg/kg) at 24 and 2 hours before DNBS instillation. Then, the animals received test compound every 24 hours for 5 consecutive days. The control group was given vehicle alone as compound dosing pattern. The animals were sacrificed 24 hours after the final dose of test compound administration and each colon was removed and weighed. Colon-to-body weight ratio was obtained from the percentage of the comparison between the animal colon weight and body weight on the 8th day. […]

[6] = tested on: Sarcoma 180 tumor; assay: Anti-Cancer Activity Against Mouse Tumor Sarcoma 180; assay type: in vivo; details: mouse body weight gain, 10 mg/kg, I.P. injections or gavage on days 1-5, 6 mice
Description: The peptide was assayed in a mouse model of the tumor Sarcoma 180. This model has been used extensively as indicative of neovascularization in mammals inasmuch as the tumor so implanted is quickly vascularizing.
Experimental Design: All mice were weighed at test initiation and test termination. The animals were divided into three groups. The Sarcoma 180 tumor was made up from a passage mouse to furnish […] per 0.1 mL inoculum. The cells were injected into the left leg hamstring muscle mass. The was delivered to the mice by I.P. injections, or gavage on days 1-5.
At the termination of the experiments, the mice were weighed and the left rear leg was amputated at the thigh. The skin was removed from the leg to expose the site at which the tumor was located. […].

N-Me—OSuc-AAPV [reference compound]
IC50 [1]: 180 nM

HS—CH—R—CH(CH—CH(CH3)2—CO—Nal-Ala-NH [reference compound]
IC50 [2]: 31 nM

Quinacrine [reference compound]
IC50 [3]: 120000 nM

LEU-PRO-PRO-SER-ARG [Peptide]
Died (mortality) [4]: Died
Died (mortality) [5]: Died
Wt. gain, gm ([6]; listed as natural peptide): 5.8 gm

LEU-PRO-PRO-SER-ARG [synthetic peptide (crude 60%)]
Wt. gain, gm [6]: 5.9 gm
